Test results published in PubChem BioAssay AID624377 (The Scripps Research Institute Molecular Screening Center, 2012).
This is a selection; strong and weak results do not stand in their true shares. Activity calls are given as the source filed them. Cut-off read from the data, not from the text of the source: active = inhibition above about 25%; inactive = the rest.

By UniProt entry, the sequences of proteins in these tests, tags left out. Where a name states a change or a piece, a line headed by the entry shows the natural chain unless it says otherwise.
UniProt Q9ULH1: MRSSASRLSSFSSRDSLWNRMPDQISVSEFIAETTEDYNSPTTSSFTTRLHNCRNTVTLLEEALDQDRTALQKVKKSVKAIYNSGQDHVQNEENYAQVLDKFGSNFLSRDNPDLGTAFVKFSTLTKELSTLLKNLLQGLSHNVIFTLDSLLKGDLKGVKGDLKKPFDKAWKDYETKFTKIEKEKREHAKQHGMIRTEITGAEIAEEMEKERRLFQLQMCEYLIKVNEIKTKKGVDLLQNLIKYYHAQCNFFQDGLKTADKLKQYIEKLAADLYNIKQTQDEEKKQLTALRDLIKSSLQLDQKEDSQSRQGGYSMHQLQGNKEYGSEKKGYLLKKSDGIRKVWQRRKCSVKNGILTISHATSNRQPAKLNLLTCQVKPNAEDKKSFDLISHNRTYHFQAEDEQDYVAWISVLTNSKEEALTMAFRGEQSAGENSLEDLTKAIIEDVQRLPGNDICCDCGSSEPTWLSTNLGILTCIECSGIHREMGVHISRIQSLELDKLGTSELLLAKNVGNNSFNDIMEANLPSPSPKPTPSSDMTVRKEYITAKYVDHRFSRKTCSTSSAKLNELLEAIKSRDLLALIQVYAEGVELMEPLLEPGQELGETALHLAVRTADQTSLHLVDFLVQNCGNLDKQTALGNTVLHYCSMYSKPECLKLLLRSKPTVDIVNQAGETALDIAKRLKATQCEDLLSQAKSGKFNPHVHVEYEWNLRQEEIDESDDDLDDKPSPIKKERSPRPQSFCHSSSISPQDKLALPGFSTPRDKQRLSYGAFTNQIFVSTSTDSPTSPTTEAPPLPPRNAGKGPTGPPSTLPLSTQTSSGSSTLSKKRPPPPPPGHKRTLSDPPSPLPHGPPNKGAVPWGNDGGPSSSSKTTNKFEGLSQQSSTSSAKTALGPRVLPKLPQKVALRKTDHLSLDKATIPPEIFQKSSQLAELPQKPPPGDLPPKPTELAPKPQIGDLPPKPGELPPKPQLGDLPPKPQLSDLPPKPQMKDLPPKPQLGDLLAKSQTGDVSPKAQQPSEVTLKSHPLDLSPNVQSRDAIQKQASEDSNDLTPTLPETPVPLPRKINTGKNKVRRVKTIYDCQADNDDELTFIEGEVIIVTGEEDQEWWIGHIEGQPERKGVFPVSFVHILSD

The compounds below were run against Arf-GAP with SH3 domain, ANK repeat and PH domain-containing protein 1 (Homo sapiens) (UniProt Q9ULH1) (assay: inhibitors of human ASAP1 ArfGAP activity, primary screen, biochemical, fluorescence polarization (AID 624377;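 note: 0% = vehicle with enzyme and substrate and 100% = no enzyme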)). Settings: ASAP1-stimulated ARF1 GTP hydrolysis, GDP FP detection; at 16.5 µM; stronger effect = higher value.
O=C(O)COc1ccc([As](=O)(O)O)cc1[N+](=O)[O-] was tested, and the inhibition was inactive: -0.19%. With Nc1ccccc1[As](=O)(O)c1ccccc1 the inhibition was inactive: 6.41%. For CCOP1(=S)c2c(C)nn(CCC#N)c2N=C(c2ccccc2F)N1C (stereo unspecified), the inhibition was inactive: -1.93%. O=P(Nc1nccs1)(Oc1ccccc1)Oc1ccccc1 was tested, and the inhibition was inactive: -7.28%. With O=[N+]([O-])c1ccc2c(c1)nnn2O the inhibition was inactive: 2.42%. In the case of CN(C)C(=O)c1cc([N+](=O)[O-])cc2c1-c1c(cc([N+](=O)[O-])cc1[N+](=O)[O-])C2=O, the inhibition is reported as inactive: -2.12%. CN(C(=O)Cc1ccc(Cl)c(Cl)c1)[C@H]1CC[C@@]2(CCCO2)C[C@@H]1N1CCCC1 was tested, and the inhibition was inactive: 3.72%. N#CCCN(C(=O)COC(=O)C(O)(c1ccccc1)c1ccccc1)c1ccc(F)cc1 was tested, and the inhibition was inactive: 7.81%. For CN(C(=O)Cc1ccccc1)[C@@H]1CC[C@]2(CCCO2)C[C@H]1N1CCCC1, the inhibition was inactive: -0.83%. For CCOP1(=S)c2c(C)nn(CCC#N)c2N=C(c2ccc(F)cc2)N1C (stereo unspecified), the inhibition was inactive: 0.02%. With NC(=O)Nc1ccc([As](=O)(O)O)cc1 the inhibition was inactive: 5.63%. With Cc1cccc(OCC(=O)OC2CN3CCC2CC3)c1 (stereo unspecified) the inhibition was inactive: -10.3%. With O=[As](O)(c1cccc(O)c1)c1cccc(O)c1 the inhibition was inactive: -5.96%. O=[As](O)(O)c1cccnc1 was tested, and the inhibition was inactive: -5.89%. In the case of COc1cc(C(=O)NCC2(N3CCOCC3)CCCCC2)cc(Cl)c1OC(C)C, the inhibition is reported as inactive: -4.45%. In the case of CS(=O)(=O)c1ccc(Cl)c(NC(=O)COC(=O)C(O)(c2ccccc2)c2ccccc2)c1, the inhibition is reported as inactive: 18.3%. In the case of O=C(OC1CN2CCC1CC2)c1ccc(Cl)cc1 (stereo unspecified), the inhibition is reported as inactive: -4.47%. COc1cc(C2NCCC3(OCCO3)C2(C)C)cc(OC)c1OC (stereo unspecified) was tested, and the inhibition was inactive: -6.87%. In the case of CCOP(=O)(Nc1cccc2ccccc12)OCC, the inhibition is reported as inactive: 8.58%. With CCCOP(=S)(Nc1nc(N)cc(=O)[nH]1)OCCC the inhibition was inactive: 0.67%. For Nc1cccc2c([As](=O)(O)O)cccc12, the inhibition was inactive: -3.49%. Cc1ccc(NCCc2c([N+](=O)[O-])cc([N+](=O)[O-])cc2[N+](=O)[O-])cc1 was tested, and the inhibition was inactive: -2.87%. With Clc1n[nH]nc1-c1nn[nH][15n]1 the inhibition was inactive: -5.31%. For O=P1(N(CCCl)CCCl)NCCC(C(F)(F)F)O1 (stereo unspecified), the inhibition was inactive: -2.79%. With CC(C)(C)C(=O)NC(Sc1ncccn1)C(Cl)(Cl)Cl (stereo unspecified) the inhibition was inactive: -6.58%. In the case of CCOP(=O)(Nc1ccc(C)cn1)OCC, the inhibition is reported as inactive: -15.5%. For CN(CCCl)Cc1cc(Cl)c(NC2=NCCN2)c(Cl)c1, the inhibition was inactive: -4.81%. CCC1=CC2Cc3nc4ccc(Cl)cc4c(N)c3C(C1)C2 (stereo unspecified) was tested, and the inhibition was inactive: 0.85%. With O=P1(Nc2ccccn2)COc2ccccc2OC1 the inhibition was inactive: -3.02%. For CCOP(=O)(NC(=NC(C)c1ccccc1)NC(C)c1ccccc1)OCC (stereo unspecified), the inhibition was inactive: -5.55%. For CC1(CBr)Cn2c(nc3ccccc3c2=O)S1 (stereo unspecified), the inhibition was inactive: -4.77%. CN(C(=O)Cc1ccc(Cl)c(Cl)c1)[C@@H]1CCCC[C@H]1N1CCCC1 was tested, and the inhibition was inactive: 9.56%. In the case of CC(C)/C=N\N=C(\N)N[N+](=O)[O-], the inhibition is reported as inactive: -0.4%. For CN(C(=O)Cc1ccc(Cl)c(Cl)c1)C1CCCC[C@@H]1N1CCCC1 (stereo partly specified), the inhibition was inactive: 5.36%. With COc1ccccc1CNC(=O)COC(=O)C(O)(c1ccccc1)c1ccccc1 the inhibition was inactive: 13.2%. In the case of O=C(/C=C/c1ccccc1)OC1CN2CCC1CC2 (stereo unspecified), the inhibition is reported as inactive: 2.46%. CCCC1OP(=O)(Nc2ccccc2)OCC1CC (stereo unspecified) was tested, and the inhibition was inactive: -0.11%. CN(C)C1(CNC(=O)c2ccc(S(C)(=O)=O)cc2)CCCCC1 was tested, and the inhibition was inactive: -3.05%. Cc1nn(-c2ccccc2)c2c1P(=O)(N1CCOCC1)N(C)C(c1ccccc1)=N2 (stereo unspecified) was tested, and the inhibition was inactive: 0.7%. With Cc1ccc(C(=O)OC2CN3CCC2CC3)cc1 (stereo unspecified) the inhibition was inactive: -7.36%. In the case of CC1CCC(C(C)C)C(OP(=O)(Nc2ccccn2)c2ccccc2)C1 (stereo unspecified), the inhibition is reported as inactive: 15.7%. For O=[As](O)(c1cccs1)c1cccs1, the inhibition was inactive: -10.9%. For Cc1ccc(OCC(=O)OC2CN3CCC2CC3)cc1 (stereo unspecified), the inhibition was inactive: -13%. In the case of NS(=O)(=O)c1cccc(NC(=O)COC(=O)C(O)(c2ccccc2)c2ccccc2)c1, the inhibition is reported as inactive: 2.26%. For O=P1(Nc2ccc(Br)cn2)COc2ccccc2OC1, the inhibition was inactive: 6.34%. Nc1cccc([As](=O)(O)c2ccccc2)c1 was tested, and the inhibition was inactive: -9.93%. In the case of O=P1(Nc2ncccn2)COc2ccccc2OC1, the inhibition is reported as inactive: -9.31%. For Cc1ccc(S(=O)(=O)N(CCCN)CCCc2c(C)nc(N)[nH]c2=O)cc1, the inhibition was inactive: 15.7%. With CCCCOc1ccc(C(=O)NCC2(N3CCCCC3)CCCCC2)cc1OC the inhibition was inactive: 0.02%. Cc1cc(SC(NC(=O)c2ccccc2)C(Cl)(Cl)Cl)nc(C(C)C)n1 (stereo unspecified) was tested, and the inhibition was inactive: 2.22%. In the case of COP(=O)(OC)N1CC1c1ccccc1 (stereo unspecified), the inhibition is reported as inactive: -2.03%. In the case of CC1CCNP(=O)(N(CCCl)CCCl)O1 (stereo unspecified), the inhibition is reported as inactive: -13.6%. With O=C(O)C(O)c1ccc(N(CCCl)CCCl)cc1 (stereo unspecified) the inhibition was inactive: 13.9%. In the case of CCOC(=O)Nc1ccc([As](=O)(O)O)c(O)c1, the inhibition is reported as inactive: -11.1%. With O=[N+]([O-])c1ccc(Nc2ccc(Oc3ccc([N+](=O)[O-])cc3[N+](=O)[O-])cc2)c([N+](=O)[O-])c1 the inhibition was inactive: -17.4%. For Cc1cc(SC(NC=O)C(Cl)(Cl)Cl)ncn1 (stereo unspecified), the inhibition was inactive: -17.9%. O=P(Nc1ccccn1)(c1cccc2ccccc12)c1cccc2ccccc12 was tested, and the inhibition was inactive: -1.41%. With CCOC(=O)Nc1cccc([As](=O)(O)O)c1 the inhibition was inactive: 3.57%. For O=C(COc1ccccc1)OC1CN2CCC1CC2 (stereo unspecified), the inhibition was inactive: 0.06%. With O=C(Nc1ccncc1[N+](=O)[O-])c1ccc([N+](=O)[O-])cc1[N+](=O)[O-] the inhibition was inactive: -1.72%. In the case of O=C(O)C(=O)c1ccc(N(CCCl)CCCl)cc1, the inhibition is reported as inactive: 9.48%. In the case of COP1(=S)c2c(C)nn(CCC#N)c2N=C(c2ccc(F)cc2)N1C (stereo unspecified), the inhibition is reported as inactive: -1.93%. For COC(=O)C1(C)COP(=O)(N2CCCC2)OC1 (stereo unspecified), the inhibition was inactive: 2.27%. For CCC(C)N(CC(C)C)C(=S)SC(NC(C)=O)C(Cl)(Cl)Cl (stereo unspecified), the inhibition was inactive: -0.9%. CCOC(=O)c1ccc(NC(=O)C(C)(CCl)SC)cc1 (stereo unspecified) was tested, and the inhibition was inactive: -6.83%. With O=C(OC1CN2CCC1CC2)c1cccc([N+](=O)[O-])c1 (stereo unspecified) the inhibition was inactive: -3.07%. With COc1ccc2nc(NP(=O)(c3ccccc3)c3ccccc3)sc2c1 the inhibition was inactive: -13.8%. COc1cc(I)ccc1[As](=O)(O)O was tested, and the inhibition was inactive: 6.64%. With O=P1(N(CCCl)CCCl)Nc2ccccc2N1 the inhibition was inactive: -13.1%. In the case of O=P1(N(CCCl)CCCl)OCCCN1CCCl (stereo unspecified), the inhibition is reported as inactive: -3.72%. For O=C(OC1CN2CCC1CC2)C12CC3CC(CC(C3)C1)C2 (stereo unspecified), the inhibition was inactive: 10.9%. Cc1cc(=O)[nH]c(N[N+](=O)[O-])n1 was tested, and the inhibition was inactive: -8.83%. For Cc1c2c(nc3ccccc13)SC(C(Cl)Cl)C2 (stereo unspecified), the inhibition was inactive: -5.38%. COc1ccc(N/C(=N/P(=O)(N2CCOCC2)N2CCOCC2)N2CCOCC2)cc1 was tested, and the inhibition was inactive: 8.57%. With O=[N+]([O-])c1cc(Oc2ccc([N+](=O)[O-])cc2C(F)(F)F)cc([N+](=O)[O-])c1 the inhibition was inactive: -0.91%. With Cc1ccc2nc3c(c(C)c2c1)CC(C(Cl)Cl)S3 (stereo unspecified) the inhibition was inactive: -10.8%. For Cc1ccc(OP(=O)(Nc2ccc([N+](=O)[O-])cn2)Oc2ccc(C)cc2)cc1, the inhibition was inactive: -1.79%. With [N-]=[N+]=NC1CCCCC1NC(=O)c1cc([N+](=O)[O-])cc([N+](=O)[O-])c1 (stereo unspecified) the inhibition was inactive: -1.06%. In the case of O=[As](O)(c1ccc(O)cc1)c1ccccc1O, the inhibition is reported as inactive: 10.4%. In the case of C[As](=O)(O)c1cccc(C(=O)O)c1, the inhibition is reported as inactive: 4.77%. In the case of O=[N+]([O-])c1ccc(-c2cc([N+](=O)[O-])c(O)c([N+](=O)[O-])c2)cc1, the inhibition is reported as inactive: -1.84%. COc1cc(C(=O)NCC2(N3CCOCC3)CCCCC2)ccc1OCC(C)C was tested, and the inhibition was inactive: -9.65%. CC(C)NC(=O)NP(=O)(Oc1ccccc1)Oc1ccccc1 was tested, and the inhibition was inactive: -6.9%. O=C(OC1CN2CCC1CC2)c1cccc2[nH]cnc12 (stereo unspecified) was tested, and the inhibition was inactive: 0.11%. CCN(CC)C(=S)SC(NC=O)C(Cl)(Cl)Cl (stereo unspecified) was tested, and the inhibition was inactive: -10.2%. For COC(=O)C1(C)COP(=O)(N2CCCCCC2)OC1 (stereo unspecified), the inhibition was inactive: 4.46%. With CC(C)c1ccc(OP(=O)(Nc2ccccn2)Oc2ccccc2F)cc1 (stereo unspecified) the inhibition was inactive: -2.48%. ClCCSc1nnc(-c2cccnc2)o1 was tested, and the inhibition was inactive: 1.95%. Cc1cc(SC(NC(=O)c2ccc(F)cc2)C(Cl)(Cl)Cl)ncn1 (stereo unspecified) was tested, and the inhibition was inactive: -11.2%. With CCOP(=O)(Nc1ccccc1)OCC the inhibition was inactive: -3.33%. CN(C(=O)Cc1ccc(Cl)c(Cl)c1)[C@H]1CCCC[C@@H]1N1CCCC1 was tested, and the inhibition was inactive: -11.2%. With Cc1ccc(NP(=O)(Oc2ccccc2F)Oc2ccccc2F)nc1 the inhibition was inactive: -2.4%. For CCn1c(=O)n(C2CCN(CC3CCCCCCC3)C[C@H]2CO)c2ccccc21 (stereo partly specified), the inhibition was inactive: -12%. With CC(=O)Nc1ccc([As](=O)(O)O)cc1 the inhibition was inactive: -6.63%. For O=C(O)c1ccccc1[As](=O)(O)O, the inhibition was inactive: -3.48%. In the case of CCCC1OP(N)(=O)OCC1CC (stereo unspecified), the inhibition is reported as inactive: 1.71%. In the case of O=P(Nc1nc2ccc(Cl)cc2s1)(c1ccccc1)c1ccccc1, the inhibition is reported as inactive: 7.74%. For CN(C)P(=O)(N(C)C)n1c(Nc2ccccc2)nnc1-c1ccccc1, the inhibition was inactive: -4.23%. CN(C(=O)Cc1ccccc1)C1CC[C@@]2(CCCO2)C[C@@H]1N1CCCC1 (stereo partly specified) was tested, and the inhibition was inactive: 9.07%. With CCN(N=Nc1nonc1N)c1nonc1N the inhibition was inactive: -18.4%. Nc1cccc2ccc([As](=O)(O)O)cc12 was tested, and the inhibition was inactive: -1.25%.
